One series can be described thus: Acute toxicity in mice. Further details: species or system mouse (ddy male). The note with it: mouse, in vivo, po; Table 3, mice. Here is the method:
(§1) The acute toxicity of the compounds of the invention was examined using ddy male mice and SD male rats, and the 50% lethal dose (LD50) was determined. Ten mice were used for each dose and morality was determined for 3 days after administration of each test compound of the invention. In the case of the rats, 5 rats were used for each dose and morality was determined 7 days after administrations.

The next series can be described thus: Acute toxicity in rats. Further details: species or system rat (SD male). The following applies: rat, in vivo, po; Table 4, rats. The method, then:
as §1

The structures appear in SMILES notation.

This is an account of results in US4599337A, “Antiphlogistic/antipyretic/analgesic agents containing theobromine or theophylline derivatives as active ingredient” (Eisai Co., Ltd., priority 1985, dated 1986).

Usually LD50 stands for the dose expected to kill half of the subjects tested.

In the series “Acute toxicity in mice”, `Cn1cnc2c1c(=O)n(CCCN1CCN(c3ccc(Cl)c(Cl)c3)CC1)c(=O)n2C` [Compound A', 1-(3-(4-(3,4-dichlorophenyl)piperazinyl-(1))-n-propyl)theobromine] returned an LD50 at 72 h greater than 800 mg/kg. Further, in the series “Acute toxicity in rats”, the LD50 at 168 h is no less than 2000 mg/kg.
